Reference: patent US20040038861A1, “Methods and compositions for normalizing lipid levels in mammalian tissues” (priority 2001, published 2004)
Substitutions are numbered along the chain they refer to. pEC50, pIC50, pKi: −log10 of the molar value. Read-outs that look alike come from different tables or passages of the source.

Chains of the proteins cited; added tags and fusions are not shown. Residues count along the entry.
metabolic amylin receptor (Rattus norvegicus, UniProt P32214), UniProt Q9JJ74, 27-148 partner: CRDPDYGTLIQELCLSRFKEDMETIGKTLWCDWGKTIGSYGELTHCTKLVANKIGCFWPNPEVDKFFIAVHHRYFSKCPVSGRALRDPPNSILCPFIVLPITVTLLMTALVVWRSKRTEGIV

Columns and labels:
[1] = target: T1, murine ramp 1/C1ins− receptor (Mus musculus, UniProt Q60755+Q9WTJ5); assay: Radioligand binding and displacement of [3H]amylin in L6 myoblasts co-transfected with murine ramp 1 and C1ins−; conditions: for pIC50: displacement of [3H]amylin (20 nM), co-transfected L6 myoblasts; for pKi: read-out: K1
T1 construct: expressed in transfected cells; host or cells: L6 myoblasts (ATCC), transient co-transfection of pcDNA3.1 plasmids
T1 sequence (Q60755 42-496 isoform Q60755-2 limits assumed): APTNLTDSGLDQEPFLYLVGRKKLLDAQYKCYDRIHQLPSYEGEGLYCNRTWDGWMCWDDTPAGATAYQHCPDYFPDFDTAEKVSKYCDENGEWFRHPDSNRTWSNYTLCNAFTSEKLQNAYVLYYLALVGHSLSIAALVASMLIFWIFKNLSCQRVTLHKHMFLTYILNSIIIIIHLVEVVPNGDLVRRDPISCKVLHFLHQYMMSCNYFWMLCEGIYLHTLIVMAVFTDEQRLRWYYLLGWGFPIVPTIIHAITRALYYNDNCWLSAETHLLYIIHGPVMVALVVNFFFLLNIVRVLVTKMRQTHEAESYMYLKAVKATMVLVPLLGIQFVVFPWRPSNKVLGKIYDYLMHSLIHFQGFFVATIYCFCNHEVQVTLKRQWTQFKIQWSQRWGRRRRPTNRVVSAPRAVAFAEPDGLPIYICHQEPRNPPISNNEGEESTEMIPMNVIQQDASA
T1 sequence (Q9WTJ5 27-148 partner): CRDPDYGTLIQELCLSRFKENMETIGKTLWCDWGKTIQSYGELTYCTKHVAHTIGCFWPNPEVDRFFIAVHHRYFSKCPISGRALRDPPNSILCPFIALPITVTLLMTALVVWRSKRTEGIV

Wistar rats [2] = assay: Serum hormones and blood metabolites following acute CGRP infusion in anaesthetised normal-fed rats; assay type: in vivo, rat
Description: (§1) Surgery. Experiments were performed on male Wistar rats. Animals were randomly assigned to experimental groups as outlined below. Induction and maintenance of surgical anesthesia was by 3-5% halothane and 2L oxygen. An initial blood sample was taken from a tail artery for measurement of baseline levels of blood glucose and lactate, electrolyte, acid base and oxygen status and serum levels of free fatty acids, triglyceride and cholesterol. Immediately following this, the trachea was cannulated and the animal ventilated at 60-70 breaths.min-1 with air supplemented with O2. The respiratory rate and end-tidal pressure (10-15 cmH2O) were adjusted to maintain end-tidal CO2 at 35-40 mmHg. Body temperature was maintained at 37° C. throughout surgery and the experiment by a heating pad. The carotid artery and jugular vein were cannulated with a solid-state blood pressure transducer and a saline filled PE 50 catheter respectively. […] Blood samples were taken from this line at time zero (baseline reading), 30 minutes and every 20 minutes until the end of the experiment at 90 minutes.
(§2) Infusion. […] At the end of the infusion a terminal blood sample was taken by cardiac puncture and analysed as per the basal sample and also for various metabolites and hormones. […]

Wistar rats [3] = assay: Mean arterial pressure and blood glucose during CGRP infusion in rats; assay type: in vivo, rat
Description: as §1, with “pad.” for “pad. The carotid artery and jugular vein were cannulated with a solid-state blood pressure transducer and a saline filled PE 50 catheter respectively.”
as §2
Mean arterial pressure (MAP), heart rate (HR, derived from the MAP waveform) oxygen saturation (Nonin 8600V Pulse Oximeter) and core body temperature were all continuously monitored throughout the experiment using a PowerLab/16s data acquisition module.

[4] = target: T2, metabolic amylin receptor (Rattus norvegicus, UniProt P32214); assay: Dose-response of free fatty acid content in incubated rat soleus muscle, nanomolar (second) phase; assay type: cell-based
T2 construct: from tissue; host or cells: isolated soleus muscle strips of male Wistar rats
T2 sequence (P32214 25-479 isoform P32214-2): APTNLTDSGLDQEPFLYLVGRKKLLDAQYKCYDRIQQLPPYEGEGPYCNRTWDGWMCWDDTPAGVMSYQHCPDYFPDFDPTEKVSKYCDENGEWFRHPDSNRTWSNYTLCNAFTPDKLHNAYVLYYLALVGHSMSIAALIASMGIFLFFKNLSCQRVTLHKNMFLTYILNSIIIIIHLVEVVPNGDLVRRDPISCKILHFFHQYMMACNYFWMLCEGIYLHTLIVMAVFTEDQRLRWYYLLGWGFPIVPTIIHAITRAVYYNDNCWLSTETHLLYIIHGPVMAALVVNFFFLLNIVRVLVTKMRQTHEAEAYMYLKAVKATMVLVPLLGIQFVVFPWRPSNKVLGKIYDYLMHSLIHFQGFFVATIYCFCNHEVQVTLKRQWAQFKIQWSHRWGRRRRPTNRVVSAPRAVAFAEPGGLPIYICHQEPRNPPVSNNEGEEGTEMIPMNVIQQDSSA
T2 sequence (Q9JJ74 27-148 partner): T1 sequence (Q9WTJ5 27-148 partner) with N21D, Q38G, Y45H, H49L, H52N, T53K, R65K, I80V, A98V
Description: […]. This breakdown can be detected as an increase of free fatty acids. […]. Leighton et al., 1989, FEBS Lett 249:357-361). […].
Soleus muscle tissue isolation and incuhation.Immersion and incubation media was Krebs-Henseleit buffer (KHB) containing 118.5 mM NaCl, 4.75 mM KCl, 1.18 mM MgSO4.7H2O and KH2PO4, 24.8 mM NaHCO3, 2.54 mM CaCl2 and 10 mM d-glucose. The medium was gassed continuously with 95% O2/5% CO2. Incubations were preformed in KHB alone or containing various concentrations of CGRP, amylin, norepinephrine, insulin or the CGRP and amylin antagonists where appropriate. Soleus muscles of both legs were excised keeping the tissue immersed in KHB; muscles were separated into two equal parts and transferred to the incubation flasks. At the completion of incubation the muscles were snap frozen in liquid nitrogen, and then trimmed of connective tissue and all visible fat. The muscle strips were stored at −80° C. until analysis.
Lipid extraction and chromatographic separation of fatty acids. […]
Determination of tissue free fatty acids and triacylglycerol concentration by enzymatic analyses. […] Free fatty acids were quantified using a commercial method (Boehringer Mannheim) adapted for micro analyses (Cobas Mira, Roche Diagnostics), with palmitic acid standards. Triacyl glycerol levels were quantified in the total lipid fraction (Pointe Scientific) with a glycerol standard. […]

| Substance | pIC50 [1] | pKi [1] | serum concentration, steady state over the hour infusion period (Wistar rats [2]; 100 pmoles/kg/hr infused animals) [nM] | Serum hormone concentration: CGRP (Wistar rats [2]; after CGRP infusion, control 6.3 ± 0.8) [pM] | mean arterial pressure (Wistar rats [3]; 60 minute CGRP infusion, significant during final 10 minutes) | blood glucose concentration (Wistar rats [3]; infusion, tail blood at 5-minute intervals, FIG. 21) | pEC50 ([4]; incubated rat soleus muscle, 1 h, 95% C.I. 8.5 to 95, r^2 0.51, read-out: EC50 for increased free fatty acid content, second phase) | pEC50 ([4]; skeletal muscle free fatty acid, second phase, CGRP-1 or 2, read-out: EC50 of second phase of lipolysis via metabolic amylin receptor) |
| --- | --- | --- | --- | --- | --- | --- | --- | --- |
| Rat amylin | 7.64 | 8.13 |  |  |  |  |  |  |
| rat CGRP-1 | 7.20 | 7.70 | 0.3 | 325 ± 75 | decrease in mean arterial pressure | significant increase in blood glucose concentration | 7.35 | ~7.35 |
| rat amylin-(8-37) | 5.90 | 6.40 |  |  |  |  |  |  |
